Target: Ghrelin receptor (Homo sapiens, UniProt Q92847)
Test: Receptor Selection and Amplification Technology (R-SAT) assay
Assay type: cell-based
Parameters: expressed in transfected cells; host or cells: NIH3T3
Settings: percent inhibition at saturating ligand, normalized to reference ligand Substance P analog = 100%; read-out: RSAT Eff(%)

Amino acid sequences for entries named in this document (tags omitted).
UniProt Q92847, whole entry: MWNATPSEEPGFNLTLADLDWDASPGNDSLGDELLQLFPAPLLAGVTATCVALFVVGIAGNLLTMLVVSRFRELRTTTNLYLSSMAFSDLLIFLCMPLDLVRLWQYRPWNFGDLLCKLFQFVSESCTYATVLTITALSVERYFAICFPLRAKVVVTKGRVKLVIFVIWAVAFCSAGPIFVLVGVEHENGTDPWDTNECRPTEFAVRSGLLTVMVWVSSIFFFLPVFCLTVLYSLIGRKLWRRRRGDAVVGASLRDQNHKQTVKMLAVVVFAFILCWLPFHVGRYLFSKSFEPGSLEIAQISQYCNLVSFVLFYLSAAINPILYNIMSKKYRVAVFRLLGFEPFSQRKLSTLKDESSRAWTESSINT

With `CC(C)C[C@H](NC(=O)[C@H](CC(C)C)NC(=O)[C@@H](Cc1c[nH]c2ccccc12)NC(=O)[C@H](Cc1ccccc1)NC(=O)[C@@H](Cc1c[nH]c2ccccc12)NC(=O)[C@H](CCC(N)=O)NC(=O)[C@@H](Cc1ccccc1)NC(=O)[C@@H]1CCCN1C(=O)[C@H](CCCCN)NC(=O)[C@@H]1CCCN1C(=O)[C@H](N)CCCNC(=N)N)C(N)=O` [substance P analog, Substance P analog, reference compound] the Emax was 100%.

— patent US20070213359A1 (ACADIA Pharmaceuticals Inc., priority 2005, published 2007)
